## Reported melting point values for industrial, environmental and drug-like chemicals

Values as listed in the OPERA 2.9 repository of K. Mansouri.

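The numbers are reported measurements, compiled and curated for the OPERA QSAR suite. One number stands for a compound and property, with no spread given. Conditions of the individual experiments are not part of the data. A value may pool stereoisomers or salt forms, and the file does not say which form was measured. Some entries may be limits or estimates that an upstream database listed as plain numbers.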

Melting points are in °C.
"n/a" marks a cell with nothing listed here.

| compound | name | MP (°C) |
|---|---|---|
| N#CSc1ccc(N)cc1 | Thiocyanic acid, p-aminophenyl ester | 49.5 |
| Fc1ccc2c(C3=CCNCC3)c[nH]c2c1 | 6-fluoro-3-(1,2,3,6-tetrahydropyridin-4-yl)-1H-indole | 174 |
| COCCn1c(C)cc(C=O)c1C | 1-(2-Methoxyethyl)-2,5-dimethyl-1H-pyrrole-3-carbaldehyde | 45 |
| O=C(CCl)N1CCCCCCC1 | 1-(Azocan-1-yl)-2-chloroethan-1-one | 67 |
| N#Cc1nn(-c2c(Cl)cc(C(F)(F)F)cc2Cl)c(N)c1SSc1c(C#N)nn(-c2c(Cl)cc(C(F)(F)F)cc2Cl)c1N | n/a | 297.6 |
| CCOC(=O)c1c(C)n(C2CCCCC2)c2ccc(O)cc12 | n/a | 248 |
| O=C(O)c1cccc(S(=O)(=O)F)c1 | 3-(Fluorosulphonyl)benzoic acid | 153 |
| Clc1cc(Cl)c(-c2ccccc2)c(Cl)c1 | 2,4,6-Trichlorobiphenyl | 63 |
| Nc1ccc2c(c1)oc1ccccc12 | 3-Dibenzofuranamine | 90 |
| O=C1NC(=O)C2(CCC2)C(=O)N1 | 6,8-Diazaspiro[3.5]nonane-5,7,9-trione | 257 |
| N#Cc1ccc(S(=O)(=O)Cl)cc1Cl | 3-Chloro-4-cyanobenzene-1-sulfonyl chloride | 52 |
| NC(=O)NC(=O)CCl | Acetamide, N-(aminocarbonyl)-2-chloro- (9CI) | 182 |
| O=C([O-])C(F)(F)C(F)F.[Na+] | Sodium 2,2,3,3-tetrafluoropropionate | 166 |
| O=Cc1cnn(Cc2ccccc2)c1 | 1-Benzyl-1H-pyrazole-4-carbaldehyde | 44 |
| O=C1NC(=O)C2(CC2)C(=O)N1 | 5,7-Diazaspiro(2.5)octane-4,6,8-trione | 325 |
| Fc1cc(CBr)ccc1Cl | 4-Chloro-3-fluorobenzyl bromide | 31.5 |
| CCCCCCCCCCCCCOP(OCCCCCCCCCCCCC)Oc1cc(C)c(C(CCC)c2cc(C(C)(C)C)c(OP(OCCCCCCCCCCCCC)OCCCCCCCCCCCCC)cc2C)cc1C(C)(C)C | n/a | -28.68 |
| CCN(N=O)C(N)=O | 1-Ethyl-1-nitrosourea | 103 |
| Clc1ccc(-c2cc(Cl)c(Cl)cc2Cl)cc1Cl | 2,3',4,4',5-Pentachlorobiphenyl | 109 |
| C#CCNC(=O)CCl | 2-chloro-n-prop-2-ynylacetamide | 65 |
| c1ccc(CP(c2ccccc2)c2ccccc2)cc1 | Benzyldiphenylphosphine | 74.5 |
| C/[N+]([O-])=N/CO[C@@H]1O[C@H](CO)[C@@H](O)[C@H](O)[C@H]1O | Cycasin | 154 |
| COc1ccc(F)c(CBr)c1F | 2,6-Difluoro-3-methoxybenzyl bromide | 54.5 |
| C[C@]12CCC(=O)C=C1CC[C@H]1[C@@H]3[C@@H](O)CC(=O)[C@@]3(C)CC[C@@H]12 | n/a | 195 |
| NCC(=O)c1ccccc1 | Phenacylamine | 20 |
| CSc1nc(=O)cc(CCl)[nH]1 | 6-(Chloromethyl)-2-(methylsulfanyl)pyrimidin-4(1H)-one | 177 |
| COS(=O)(=O)[O-].C[N+]1(C)CCCC1COC(=O)C(O)(c1ccccc1)c1ccccc1 (centres undefined) | n/a | 154 |
| Cc1cc(N2CCN(C)CC2)ccc1N | 2-methyl-4-(4-methylpiperazin-1-yl)aniline | 101 |
| COc1ccc(C(=CC(=O)N2CCOCC2)c2ccc(F)cc2)cc1OC | Flumorph | 108 |
| NS(=O)(=O)c1ccc(N2CCNCC2)cc1 | 4-piperazin-1-ylbenzenesulfonamide | 220 |
| CC1(C)C(C(=O)c2cn(CCCCCF)c3ccccc23)C1(C)C | XLR-11 | 76.5 |
| C[C@@H]1CC[C@@]2(NC1)O[C@H]1C[C@H]3[C@@H]4CC=C5C[C@@H](O)CC[C@]5(C)[C@H]4CC[C@]3(C)[C@H]1[C@@H]2C | Solasodine | 201 |
| COc1ccc2c3c1OC1C(O)C=CC4C(C2)[N+](C)(C)CCC341.[Br-] (centres undefined) | Codeine methylbromide | 260 |
| C[C@]12CC[C@H](O)C[C@H]1CC[C@@H]1[C@@H]2C[C@@H](O)[C@]2(C)[C@@H](C3=CC(=O)OC3)[C@@H](O)C[C@]12O | Diginatigenin | 157 |
| COC(=O)C=Cc1ccc(Cl)cc1 | Methyl 3-(4-chlorophenyl)-2-propenoate | 75.5 |
| CC(=O)OC(Cl)CCl (centres undefined) | 1,2-Dichloroethyl acetate | -32 |
| O=C(c1cc(Cl)c[nH]1)C(Cl)(Cl)Cl | 2,2,2-trichloro-1-(4-chloro-1H-pyrrol-2-yl)ethanone | 129 |
| CCOP(=O)(OCC)C(C)NC(=O)N(CCCl)N=O (centres undefined) | Fotemustine | 85 |

Excerpt, the opening 6 entries:

| compound | name | MP (°C) |
|---|---|---|
| N#CSc1ccc(N)cc1 | Thiocyanic acid, p-aminophenyl ester | 49.5 |
| Fc1ccc2c(C3=CCNCC3)c[nH]c2c1 | 6-fluoro-3-(1,2,3,6-tetrahydropyridin-4-yl)-1H-indole | 174 |
| COCCn1c(C)cc(C=O)c1C | 1-(2-Methoxyethyl)-2,5-dimethyl-1H-pyrrole-3-carbaldehyde | 45 |
| O=C(CCl)N1CCCCCCC1 | 1-(Azocan-1-yl)-2-chloroethan-1-one | 67 |
| N#Cc1nn(-c2c(Cl)cc(C(F)(F)F)cc2Cl)c(N)c1SSc1c(C#N)nn(-c2c(Cl)cc(C(F)(F)F)cc2Cl)c1N | n/a | 297.6 |
| CCOC(=O)c1c(C)n(C2CCCCC2)c2ccc(O)cc12 | n/a | 248 |